Test results from the supplement of paper PMC10307832.

Legend:
Test in all cases: relative viability (nuclei count vs DMSO), 5 days (fraction); higher = more cells survive
XMD8-85 + Pictilisib = compound: CN1CCN(CC1)C2=CC(=C(C=C2)NC3=NC=C4C(=N3)N(C5=CC=CC=C5C(=O)N4C)C)OC [XMD8-85] + CS(=O)(=O)N1CCN(Cc2cc3nc(-c4cccc5[nH]ncc45)nc(N4CCOCC4)c3s2)CC1 [Pictilisib] (partner 1 µM)
Outline: (§1)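 Relative viability is defined as nuclei in treated wells over nuclei in vehicle wells. Duplicate plates were run and medians reported. Lung cancer cell lines in 1536-well plates were dosed by pin tool one day after seeding, with one drug or with a fixed anchor-drug dose plus five library-drug doses (not always all listed) in √10 steps, and nuclei were counted after 5 days.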

XMD8-85 + AZD7762 = compound: CN1CCN(CC1)C2=CC(=C(C=C2)NC3=NC=C4C(=N3)N(C5=CC=CC=C5C(=O)N4C)C)OC [XMD8-85] + NC(=O)Nc1cc(-c2cccc(F)c2)sc1C(=O)N[C@H]1CCCNC1 [AZD7762] (partner 0.2 µM)
Outline: as §1

XMD8-85 + Alpelisib = compound: CN1CCN(CC1)C2=CC(=C(C=C2)NC3=NC=C4C(=N3)N(C5=CC=CC=C5C(=O)N4C)C)OC [XMD8-85] + Cc1nc(NC(=O)N2CCC[C@H]2C(N)=O)sc1-c1ccnc(C(C)(C)C(F)(F)F)c1 [Alpelisib] (partner 2 µM)
Outline: as §1

XMD8-85 + Palbociclib = compound: CN1CCN(CC1)C2=CC(=C(C=C2)NC3=NC=C4C(=N3)N(C5=CC=CC=C5C(=O)N4C)C)OC [XMD8-85] + CC(=O)c1c(C)c2cnc(Nc3ccc(N4CCNCC4)cn3)nc2n(C2CCCC2)c1=O [Palbociclib] (partner 0.5 µM)
Outline: as §1

XMD8-85 + Dasatinib = compound: CN1CCN(CC1)C2=CC(=C(C=C2)NC3=NC=C4C(=N3)N(C5=CC=CC=C5C(=O)N4C)C)OC [XMD8-85] + Cc1nc(Nc2ncc(C(=O)Nc3c(C)cccc3Cl)s2)cc(N2CCN(CCO)CC2)n1 [Dasatinib] (partner 0.075 µM)
Outline: as §1

XMD8-85 + Lapatinib = compound: CN1CCN(CC1)C2=CC(=C(C=C2)NC3=NC=C4C(=N3)N(C5=CC=CC=C5C(=O)N4C)C)OC [XMD8-85] + CS(=O)(=O)CCNCc1ccc(-c2ccc3ncnc(Nc4ccc(OCc5cccc(F)c5)c(Cl)c4)c3c2)o1 [Lapatinib] (partner 2 µM)
Outline: as §1

XMD8-85 + OSI-027 = compound: CN1CCN(CC1)C2=CC(=C(C=C2)NC3=NC=C4C(=N3)N(C5=CC=CC=C5C(=O)N4C)C)OC [XMD8-85] + COc1cccc2cc(-c3nc([C@H]4CC[C@H](C(=O)O)CC4)n4ncnc(N)c34)[nH]c12 [OSI-027] (partner 0.5 µM)
Outline: as §1

XMD8-85 + Luminespib = compound: CN1CCN(CC1)C2=CC(=C(C=C2)NC3=NC=C4C(=N3)N(C5=CC=CC=C5C(=O)N4C)C)OC [XMD8-85] + CCNC(=O)c1noc(-c2cc(C(C)C)c(O)cc2O)c1-c1ccc(CN2CCOCC2)cc1 [Luminespib] (partner 0.01 µM)
Outline: as §1

XMD8-85 + Decitabine = compound: CN1CCN(CC1)C2=CC(=C(C=C2)NC3=NC=C4C(=N3)N(C5=CC=CC=C5C(=O)N4C)C)OC [XMD8-85] + Nc1ncn([C@H]2C[C@H](O)[C@@H](CO)O2)c(=O)n1 [Decitabine] (partner 2 µM)
Outline: as §1

XMD8-85 + Olaparib = compound: CN1CCN(CC1)C2=CC(=C(C=C2)NC3=NC=C4C(=N3)N(C5=CC=CC=C5C(=O)N4C)C)OC [XMD8-85] + O=C(c1cc(Cc2n[nH]c(=O)c3ccccc23)ccc1F)N1CCN(C(=O)C2CC2)CC1 [Olaparib] (partner 8 µM)
Outline: as §1

XMD8-85 + Crizotinib = compound: CN1CCN(CC1)C2=CC(=C(C=C2)NC3=NC=C4C(=N3)N(C5=CC=CC=C5C(=O)N4C)C)OC [XMD8-85] + C[C@@H](Oc1cc(-c2cnn(C3CCNCC3)c2)cnc1N)c1c(Cl)ccc(F)c1Cl [Crizotinib] (partner 1 µM)
Outline: as §1

XMD8-85 + Phenformin = compound: CN1CCN(CC1)C2=CC(=C(C=C2)NC3=NC=C4C(=N3)N(C5=CC=CC=C5C(=O)N4C)C)OC [XMD8-85] + N=C(N)NC(=N)NCCc1ccccc1 [Phenformin] (partner 250 µM)
Outline: as §1

XMD8-85 + Pemetrexed = compound: CN1CCN(CC1)C2=CC(=C(C=C2)NC3=NC=C4C(=N3)N(C5=CC=CC=C5C(=O)N4C)C)OC [XMD8-85] + Nc1nc2[nH]cc(CCc3ccc(C(=O)N[C@@H](CCC(=O)O)C(=O)O)cc3)c2c(=O)[nH]1 [Pemetrexed] (partner 0.2 µM)
Outline: as §1

XMD8-85 + Bortezomib = compound: CN1CCN(CC1)C2=CC(=C(C=C2)NC3=NC=C4C(=N3)N(C5=CC=CC=C5C(=O)N4C)C)OC [XMD8-85] + CC(C)C[C@H](NC(=O)[C@H](Cc1ccccc1)NC(=O)c1cnccn1)B(O)O [Bortezomib] (partner 0.002 µM)
Outline: as §1

XMD8-85 + Linsitinib = compound: CN1CCN(CC1)C2=CC(=C(C=C2)NC3=NC=C4C(=N3)N(C5=CC=CC=C5C(=O)N4C)C)OC [XMD8-85] + C[C@]1(O)C[C@@H](c2nc(-c3ccc4ccc(-c5ccccc5)nc4c3)c3c(N)nccn32)C1 [Linsitinib] (partner 1 µM)
Outline: as §1

XMD8-85 + Navitoclax = compound: CN1CCN(CC1)C2=CC(=C(C=C2)NC3=NC=C4C(=N3)N(C5=CC=CC=C5C(=O)N4C)C)OC [XMD8-85] + CC1(C)CCC(c2ccc(Cl)cc2)=C(CN2CCN(c3ccc(C(=O)NS(=O)(=O)c4ccc(N[C@H](CCN5CCOCC5)CSc5ccccc5)c(S(=O)(=O)C(F)(F)F)c4)cc3)CC2)C1 [Navitoclax] (partner 0.5 µM); details: first compound 0.8 µM
Outline: as §1

XMD8-85 + Vorinostat = compound: CN1CCN(CC1)C2=CC(=C(C=C2)NC3=NC=C4C(=N3)N(C5=CC=CC=C5C(=O)N4C)C)OC [XMD8-85] + O=C(CCCCCCC(=O)Nc1ccccc1)NO [Vorinostat] (partner 1 µM)
Outline: as §1

A549
relative viability (XMD8-85 + Pictilisib; first compound 2.53 µM): 0.511

A-427
relative viability (XMD8-85 + AZD7762; first compound 0.08 µM): 0.709

ABC-1
relative viability (XMD8-85 + Alpelisib; first compound 8 µM): 0.705 | relative viability (XMD8-85 + Pictilisib; first compound 8 µM): 0.425 | relative viability (XMD8-85 + Palbociclib; first compound 8 µM): 0.503 | relative viability (XMD8-85 + Dasatinib; first compound 0.253 µM): 0.522

CAL-12T
relative viability (XMD8-85 + Lapatinib; first compound 0.253 µM): 0.719 | relative viability (XMD8-85 + AZD7762; first compound 2.53 µM): 0.622

COR-L23
relative viability (XMD8-85 + OSI-027; first compound 0.253 µM): 0.819 | relative viability (XMD8-85 + Luminespib; first compound 2.53 µM): 0.634

COR-L 105
relative viability (XMD8-85 + Alpelisib; first compound 0.08 µM): 1.09 | relative viability (XMD8-85 + OSI-027; first compound 0.253 µM): 0.565 | relative viability (XMD8-85 + Decitabine; first compound 0.08 µM): 0.712 | relative viability (XMD8-85 + Olaparib; first compound 0.253 µM): 0.805 | relative viability (XMD8-85 + Crizotinib; first compound 0.08 µM): 0.782 | relative viability (XMD8-85 + Luminespib; first compound 2.53 µM): 0.492

Calu-6
relative viability (XMD8-85 + Crizotinib; first compound 2.53 µM): 0.756

ChaGo-K-1
relative viability (XMD8-85 + Phenformin; first compound 8 µM): 0.356 | relative viability (XMD8-85 + Crizotinib; first compound 8 µM): 0.654 | relative viability (XMD8-85 + Dasatinib; first compound 0.253 µM): 0.621

EBC-1
relative viability (XMD8-85 + Alpelisib; first compound 0.8 µM): 0.827

EKVX
relative viability (XMD8-85 + OSI-027; first compound 8 µM): 0.688 | relative viability (XMD8-85 + Pemetrexed; first compound 2.53 µM): 0.386

EMC-BAC-2
relative viability (XMD8-85 + Phenformin; first compound 0.8 µM): 0.511 | relative viability (XMD8-85 + Decitabine; first compound 0.8 µM): 0.936 | relative viability (XMD8-85 + Crizotinib; first compound 0.253 µM): 0.656

H3255
relative viability (XMD8-85 + Phenformin; first compound 8 µM): 0.326 | relative viability (XMD8-85 + Pictilisib; first compound 0.8 µM): 0.589 | relative viability (XMD8-85 + Bortezomib; first compound 0.8 µM): 0.753 | relative viability (XMD8-85 + Pemetrexed; first compound 0.253 µM): 0.567

HCC-15
relative viability (XMD8-85 + OSI-027; first compound 2.53 µM): 0.712

HCC-78
relative viability (XMD8-85 + Lapatinib; first compound 0.253 µM): 0.625

HCC-366
relative viability (XMD8-85 + Linsitinib; first compound 2.53 µM): 0.616 | relative viability (XMD8-85 + Olaparib; first compound 2.53 µM): 0.343 | relative viability (XMD8-85 + Crizotinib; first compound 0.253 µM): 0.511

IA-LM
relative viability (XMD8-85 + Bortezomib; first compound 2.53 µM): 0.524 | relative viability (XMD8-85 + Crizotinib; first compound 2.53 µM): 0.541

LC-2-ad
relative viability (XMD8-85 + Alpelisib; first compound 8 µM): 0.519 | relative viability (XMD8-85 + Phenformin; first compound 8 µM): 0.372 | relative viability (XMD8-85 + Bortezomib; first compound 8 µM): 0.621 | relative viability (XMD8-85 + Navitoclax): 0.613 | relative viability (XMD8-85 + Vorinostat; first compound 0.253 µM): 0.684

LCLC-97TM1
relative viability (XMD8-85 + OSI-027; first compound 0.253 µM): 0.396 | relative viability (XMD8-85 + Dasatinib; first compound 0.08 µM): 0.842

LCLC-103H
relative viability (XMD8-85 + OSI-027; first compound 2.53 µM): 0.425

LXF-289
relative viability (XMD8-85 + Phenformin; first compound 8 µM): 0.483 | relative viability (XMD8-85 + Pictilisib; first compound 0.253 µM): 0.661 | relative viability (XMD8-85 + Luminespib; first compound 2.53 µM): 0.663

NCI-H23
relative viability (XMD8-85 + Linsitinib; first compound 8 µM): 0.413 | relative viability (XMD8-85 + Palbociclib; first compound 0.253 µM): 0.632 | relative viability (XMD8-85 + Pemetrexed; first compound 2.53 µM): 0.625

NCI-H322M
relative viability (XMD8-85 + Alpelisib; first compound 0.253 µM): 0.727 | relative viability (XMD8-85 + OSI-027; first compound 0.253 µM): 0.547 | relative viability (XMD8-85 + Phenformin; first compound 0.253 µM): 0.727

NCI-H358
relative viability (XMD8-85 + Linsitinib; first compound 0.8 µM): 0.743 | relative viability (XMD8-85 + Vorinostat; first compound 0.08 µM): 0.654

NCI-H596
relative viability (XMD8-85 + Alpelisib; first compound 0.08 µM): 0.418 | relative viability (XMD8-85 + OSI-027; first compound 8 µM): 0.577 | relative viability (XMD8-85 + Pemetrexed; first compound 0.253 µM): 0.452 | relative viability (XMD8-85 + Luminespib; first compound 0.8 µM): 0.916

NCI-H650
relative viability (XMD8-85 + Phenformin; first compound 0.08 µM): 0.511 | relative viability (XMD8-85 + Pictilisib; first compound 0.08 µM): 0.879 | relative viability (XMD8-85 + Lapatinib; first compound 8 µM): 0.368

NCI-H661
relative viability (XMD8-85 + Alpelisib; first compound 0.08 µM): 0.606 | relative viability (XMD8-85 + Palbociclib; first compound 0.253 µM): 0.423 | relative viability (XMD8-85 + Bortezomib; first compound 0.8 µM): 0.834 | relative viability (XMD8-85 + Lapatinib; first compound 2.53 µM): 0.564
